Experimental data: ChEMBL document CHEMBL1177841, “Chromene-3-carboxamide derivatives discovered from virtual screening as potent inhibitors of the tumour maker, AKR1B10” (Bioorg Med Chem, 2010)

Target: Aldo-keto reductase family 1 member B1 (Homo sapiens, UniProt P15121)
Assay: Inhibition of N-terminal 6His-tagged human aldose reductase expressed in Escherichia coli BL21(DE3) mediated NADPH linked pyridine-3-aldehyde reduction

With `O=C(O)Cc1nn(Cc2nc3cc(C(F)(F)F)ccc3s2)c(=O)c2ccccc12` [ZOPOLRESTAT] the IC50 was 60 nM.
